In patent US12383510B2 (Starton Therapeutics, Inc., priority 2020, dated 2025):

Tested on: healthy female volunteers

Cc1cc2c(s1)Nc1ccccc1N=C2N1CCN(C)CC1 [olanzapine, 2-methyl-10-(4-methyl-1-piperazinyl)-4H-thieno-[2,3-b][1,5]benzo-diazepine]
Incidence of sedation on day 1, comparison with placebo (all oral doses (2, 4, 6, 8 mg)): significantly greater in all doses of olanzapine than placebo | Sedation severity scores on day 1, comparison with placebo (all oral doses (2, 4, 6, 8 mg), scale 1=no sedation, 10=severe sedation): significantly different (higher sedation) than placebo | Dose dependence of sedation in the first day of dosing (oral doses 2-8 mg): NOT dose dependent
